Experimental data as given in US20070191335A1, “Heterocylic antiviral compounds” (priority 2006, published 2007).

The chains behind the UniProt entries cited, without tags or fusion partners.
UniProt P51681, whole entry: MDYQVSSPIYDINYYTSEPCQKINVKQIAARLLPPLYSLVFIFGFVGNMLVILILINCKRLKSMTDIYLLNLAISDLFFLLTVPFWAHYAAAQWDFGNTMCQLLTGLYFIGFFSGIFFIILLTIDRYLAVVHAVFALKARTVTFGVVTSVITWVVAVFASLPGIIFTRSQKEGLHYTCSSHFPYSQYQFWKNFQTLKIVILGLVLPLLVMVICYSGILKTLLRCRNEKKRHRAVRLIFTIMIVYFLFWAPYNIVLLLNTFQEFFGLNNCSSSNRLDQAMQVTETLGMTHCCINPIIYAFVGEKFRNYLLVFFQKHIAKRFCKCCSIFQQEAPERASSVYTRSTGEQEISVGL

Biological target: CCR5 (Homo sapiens, UniProt P51681)
Assay: CCR5-Mediated CCF Assay
Settings: Hela-R5 cells (gp160) co-cultured 24 hrs with CEM-NKr-CCR5-Luc cells, luciferase readout
Procedure: CCF assay was performed as described before (C. Ji, J. Zhang, N. Cammack and S. Sankuratri 2006 J. Biomol. Screen. in press). Hela-R5 cells (express gp160 from R5-tropic virus and HIV-1 T at) were plated in 384 well white culture plates (BD Bioscience, Palo Alto, Calif.) at 7.5×10^3 cells per well in phenol red-free Dulbecco's Modified Eagle Medium (DMEM) supplemented with 10% FBS, 1× Pen-Strep, 300 μg/ml G418, 100 μg/ml hygromycin, and 1 μg/ml doxycycline (Dox) (BD Bioscience, Palo Alto, Calif.), using Multimek (Beckman, Fullerton, Calif.) and incubated at 37° C. overnight to induce the expression of gp160. Ten μl diluted compounds in medium containing 5% DMSO were added to the cells, followed by the addition of CEM-NKr-CCR5-Luc (obtained from NIH AIDS Research & Reference Reagents Program) that expresses CD4 and CCR5 and carries a HIV-2 long terminal repeat (LTR)-driven luciferase reporter gene at 1.5×10^4 cells/15 μl/well and incubated for 24 hrs. At the end of co-culture, 15 μl of Steady-Glo luciferase substrate was added into each well, and the cultures were sealed and gently shaken for 45 min. The luciferase activity were measured for 10 sec per well as luminescence by using 16-channel TopCount NXT (PerkinElmer, Shelton, Conn.) with 10 min dark adaptation and the readout is count per second (CPS). […]

IC50: 0.4 nM
SMILES: CCOC(=O)CN(C)c1nc(C)c(C(=O)N2C[C@H]3CN(CCCN(C(=O)C4CCC(F)(F)CC4)c4ccc(C)c(Cl)c4)C[C@H]3C2)c(C)n1 (relative stereo)
